## CycPeptMPDB entries from one study

PAMPA is the parallel artificial membrane permeability assay, which has no cells and reads passive diffusion. P is given in units of 10^-6 cm/s (from log10 values with two decimals); larger means faster passage.

Listed for CC(C)C[C@@H]1NC(=O)[C@H](C)N(C)C(=O)[C@@H]2CCCN2C(=O)[C@H](Cc2ccccc2)NC(=O)[C@@H](CC(C)C)NC(=O)[C@@H]2CCCN2C(=O)C[C@H](Cc2ccccc2)NC1=O: PAMPA 0.63 × 10^-6 cm/s. Listed for CC(C)C[C@H]1NC(=O)[C@H]2CCCN2C(=O)C[C@H](Cc2ccccc2)NC(=O)[C@@H](CC(C)C)NC(=O)[C@H](C)N(C)C(=O)[C@H]2CCCN2C(=O)[C@H](Cc2ccccc2)NC1=O: PAMPA 0.47 × 10^-6 cm/s. For CC(C)C[C@@H]1NC(=O)[C@@H](CC(C)C)N(C)C(=O)[C@H](C)N(C)C(=O)[C@H]2CCCN2C(=O)[C@H](Cc2ccccc2)NC(=O)[C@@H](CC(C)C)NC(=O)[C@@H]2CCCN2C1=O the data give PAMPA 3.2 × 10^-6 cm/s. Listed for CC(C)C[C@@H]1C(=O)N(C)[C@@H](CC(C)C)C(=O)N2CCC[C@@H]2C(=O)N(C)[C@H](CC(C)C)C(=O)N[C@@H](Cc2ccccc2)C(=O)N2CCC[C@@H]2C(=O)N[C@@H](C)C(=O)N1C: PAMPA 9.8 × 10^-6 cm/s.

CC(C)C[C@@H]1NC(=O)C[C@H](Cc2ccccc2)NC(=O)[C@H]2CCCN2C(=O)[C@H](Cc2ccccc2)NC(=O)[C@H](CC(C)C)NC(=O)[C@H]2CCCN2C(=O)[C@@H](CC(C)C)NC1=O is reported with PAMPA 0.28 × 10^-6 cm/s. CC(C)C[C@@H]1NC(=O)[C@H]2CCCN2C(=O)[C@@H](CC(C)C)N(C)C(=O)[C@H](CC(C)C)N(C)C(=O)[C@@H](C)N(C)C(=O)[C@H]2CCCN2C(=O)[C@H](Cc2ccccc2)NC1=O has PAMPA 0.17 × 10^-6 cm/s. CC(C)C[C@H]1NC(=O)[C@@H](C)NC(=O)[C@@H]2CCCN2C(=O)[C@H](Cc2ccccc2)NC(=O)CN(Cc2ccccc2)C(=O)[C@@H]2CCCN2C(=O)[C@H](CC(C)C)N(C)C1=O is reported with PAMPA 2.8 × 10^-6 cm/s. For CC(C)C[C@H]1NC(=O)[C@H](C)N(C)C(=O)[C@H](Cc2ccccc2)NC(=O)[C@H](CC(C)C)N(C)C(=O)[C@H]2CCCN2C(=O)C[C@H](Cc2ccccc2)NC1=O the data give PAMPA 6.8 × 10^-6 cm/s.

For CC(C)C[C@@H]1NC(=O)[C@H]2CCCN2C(=O)[C@H](CC(C)C)NC(=O)[C@H](CC(C)C)NC(=O)[C@@H](C)NC(=O)[C@H]2CCCN2C(=O)[C@H](Cc2ccccc2)NC1=O the data give PAMPA 1.2 × 10^-6 cm/s. CC(C)C[C@@H]1NC(=O)[C@@H]2CCCN2C(=O)[C@H](CC(C)C)N(C)C(=O)[C@H](CC(C)C)NC(=O)C[C@H](Cc2ccccc2)NC(=O)[C@H]2CCCN2C(=O)[C@H](Cc2ccccc2)NC1=O has PAMPA 3.5 × 10^-6 cm/s. For CC(C)C[C@@H]1NC(=O)[C@@H](CC(C)C)N(C)C(=O)[C@@H](C)NC(=O)[C@H](Cc2ccccc2)NC(=O)[C@@H](CC(C)C)N(C)C(=O)[C@H]2CCCN2C1=O the data give PAMPA 13 × 10^-6 cm/s. CC(C)C[C@@H]1NC(=O)[C@@H](C)N(C)C(=O)[C@H]2CCCN2C(=O)[C@H](Cc2ccccc2)NC(=O)[C@@H](CC(C)C)NC(=O)[C@@H]2CCCN2C(=O)[C@H](CC(C)C)N(C)C1=O has PAMPA 0.87 × 10^-6 cm/s.

For CC(C)C[C@@H]1NC(=O)C[C@H](Cc2ccccc2)NC(=O)[C@H]2CCCN2C(=O)[C@H](Cc2ccccc2)NC(=O)[C@H](CC(C)C)N(C)C(=O)[C@@H]2CCCN2C(=O)[C@@H](CC(C)C)N(C)C1=O the data give PAMPA 3.8 × 10^-6 cm/s. Listed for CC(C)C[C@H]1NC(=O)[C@H](C)N(C)C(=O)[C@H](Cc2ccccc2)NC(=O)CN(Cc2ccccc2)C(=O)[C@H]2CCCN2C(=O)C[C@H](Cc2ccccc2)NC1=O: PAMPA 2.3 × 10^-6 cm/s. Listed for CC(C)C[C@@H]1NC(=O)[C@H](C)N(C)C(=O)[C@@H]2CCCN2C(=O)[C@H](Cc2ccccc2)NC(=O)[C@H](CC(C)C)N(C)C(=O)[C@H]2CCCN2C(=O)[C@H](CC(C)C)NC1=O: PAMPA 2.7 × 10^-6 cm/s. CC(C)C[C@@H]1NC(=O)[C@@H](C)NC(=O)[C@H](Cc2ccccc2)NC(=O)CN(Cc2ccccc2)C(=O)[C@@H]2CCCN2C(=O)[C@H](CC(C)C)NC1=O is reported with PAMPA 0.54 × 10^-6 cm/s.

Listed for CC(C)C[C@H]1NC(=O)[C@H](C)NC(=O)[C@H](Cc2ccccc2)NC(=O)CN(Cc2ccccc2)C(=O)[C@@H]2CCCN2C(=O)[C@H](CC(C)C)N(C)C1=O: PAMPA 2.2 × 10^-6 cm/s.

The 3 lowest values of PAMPA among the entries above:

For CC(C)C[C@@H]1NC(=O)[C@H]2CCCN2C(=O)[C@@H](CC(C)C)N(C)C(=O)[C@H](CC(C)C)N(C)C(=O)[C@@H](C)N(C)C(=O)[C@H]2CCCN2C(=O)[C@H](Cc2ccccc2)NC1=O the data give PAMPA 0.17 × 10^-6 cm/s.
For CC(C)C[C@@H]1NC(=O)C[C@H](Cc2ccccc2)NC(=O)[C@H]2CCCN2C(=O)[C@H](Cc2ccccc2)NC(=O)[C@H](CC(C)C)NC(=O)[C@H]2CCCN2C(=O)[C@@H](CC(C)C)NC1=O the data give PAMPA 0.28 × 10^-6 cm/s.
For CC(C)C[C@H]1NC(=O)[C@H]2CCCN2C(=O)C[C@H](Cc2ccccc2)NC(=O)[C@@H](CC(C)C)NC(=O)[C@H](C)N(C)C(=O)[C@H]2CCCN2C(=O)[C@H](Cc2ccccc2)NC1=O the data give PAMPA 0.47 × 10^-6 cm/s.

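Lipid, pH, incubation time, direction and concentration are not recorded in the data file. The list need not hold all peptides of the study. Peptides that the database sets to -10, its floor, are left out.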

Collected by the curators of CycPeptMPDB (Li et al. 2023) from Townsend et al. 2020, doi:10.26434/chemrxiv.13335941.v1.